Target: Tyrosine-protein kinase BTK (Homo sapiens, UniProt Q06187)
Assay: biochemical

Protein sequences, listed by entry. Tags and fused reporters are not part of them. Lines headed by an entry give the natural chain unless they say otherwise; changes in a name come on top.
UniProt Q06187: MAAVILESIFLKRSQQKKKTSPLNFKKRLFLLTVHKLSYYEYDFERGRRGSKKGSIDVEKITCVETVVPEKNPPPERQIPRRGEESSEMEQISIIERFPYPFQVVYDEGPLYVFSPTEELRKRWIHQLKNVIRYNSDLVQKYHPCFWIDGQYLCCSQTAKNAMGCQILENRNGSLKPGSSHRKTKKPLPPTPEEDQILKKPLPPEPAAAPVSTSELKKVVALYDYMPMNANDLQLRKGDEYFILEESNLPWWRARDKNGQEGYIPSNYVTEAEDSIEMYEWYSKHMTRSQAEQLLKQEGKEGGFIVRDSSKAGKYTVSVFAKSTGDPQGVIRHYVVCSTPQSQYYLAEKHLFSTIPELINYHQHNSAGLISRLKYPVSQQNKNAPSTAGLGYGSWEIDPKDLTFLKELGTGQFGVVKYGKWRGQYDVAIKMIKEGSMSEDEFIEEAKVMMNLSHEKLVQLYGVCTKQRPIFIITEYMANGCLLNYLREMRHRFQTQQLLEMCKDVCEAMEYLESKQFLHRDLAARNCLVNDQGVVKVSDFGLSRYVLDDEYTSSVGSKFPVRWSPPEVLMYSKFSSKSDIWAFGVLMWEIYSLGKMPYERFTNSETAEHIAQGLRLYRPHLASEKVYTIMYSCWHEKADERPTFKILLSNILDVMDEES

IC50: 0.12 µM
SMILES: O=C(Nc1cccc(C2CCCN(c3ncnc4[nH]ccc34)C2)c1)Nc1ccccc1Cl (stereo unspecified)

Source: ChEMBL document CHEMBL4387741, “Optimization of novel reversible Bruton's tyrosine kinase inhibitors identified using Tethering-fragment-based screens” (Bioorg Med Chem, 2019)
